The values below are quoted from earlier work in paper PMC5601361, “Targeting the Receptor for Advanced Glycation Endproducts (RAGE): A Medicinal Chemistry Perspective” (Journal of Medicinal Chemistry, 2017).

By IC50 is commonly meant the midpoint of a concentration-inhibition curve.

Series [1] relates to S100A7-expressing transgenic mice. Details: method as in PMID 25572331.
In series [2] the test system is diabetic mice. Details: method as in PMID 18245563, PMID 26807573, PMID 14568011.
Series [3] has as its system human RAGE-Aβ1–42. As to conditions: ELISA on human RAGE-Aβ1–42. (In an ELISA, binding on a coated surface is turned into a signal by an enzyme label.)

For “sRAGE: circulating soluble form of RAGE lacking transmembrane and cytoplasmic domains, acts as a decoy”, in series [1], the “tumor development and metastasis” value is “inhibited further tumor development and metastasis”. In series [2], the “ischemia–reperfusion injury” value is recorded as “protects them against ischemia–reperfusion injury”. Take `CCCCOc1cc(OCCCN(CC)CC)ccc1NC(=O)c1cc(-c2ccc(Oc3ccc(F)cc3)cc2)nn1C` [Compound 7]: in series [3], the IC50 was 1900 nM.
